Columns and labels:
[1] = target: T1, P2X purinoceptor 1 (Homo sapiens) (UniProt P51575); assay: Antagonist activity at non-desensitizing human P2X1 receptor ( P2X2/P2X1 chimera) expressed in human 1321N1 cells assessed as inhibition of ATP-induced calcium influx at 10 uM pre-incubated for 30 mins before ATP stimulation by FLIPR assay relative to control; assay type: cell-based
T1 sequence (whole entry): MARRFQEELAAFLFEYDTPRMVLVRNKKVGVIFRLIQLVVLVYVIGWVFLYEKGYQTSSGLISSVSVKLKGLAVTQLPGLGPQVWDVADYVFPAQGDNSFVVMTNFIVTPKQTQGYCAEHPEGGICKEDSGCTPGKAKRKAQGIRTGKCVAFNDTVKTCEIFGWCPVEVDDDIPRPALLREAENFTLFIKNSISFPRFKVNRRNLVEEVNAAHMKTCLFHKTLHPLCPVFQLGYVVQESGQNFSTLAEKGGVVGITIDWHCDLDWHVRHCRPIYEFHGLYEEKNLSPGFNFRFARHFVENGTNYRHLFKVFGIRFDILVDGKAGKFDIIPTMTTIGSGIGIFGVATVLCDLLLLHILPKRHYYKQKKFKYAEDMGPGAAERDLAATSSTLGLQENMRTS

[2] = target: T2, P2X purinoceptor 2 (Homo sapiens) (UniProt Q9UBL9); assay: Antagonist activity at human P2X2 receptor expressed in human 1321N1 cells assessed as inhibition of ATP-induced cytosolic calcium influx at 10 uM preincubated for 30 mins followed by ATP addition by Fluo-4 AM dye-based fluorescence assay relative to control; assay type: cell-based
T2 sequence (whole entry): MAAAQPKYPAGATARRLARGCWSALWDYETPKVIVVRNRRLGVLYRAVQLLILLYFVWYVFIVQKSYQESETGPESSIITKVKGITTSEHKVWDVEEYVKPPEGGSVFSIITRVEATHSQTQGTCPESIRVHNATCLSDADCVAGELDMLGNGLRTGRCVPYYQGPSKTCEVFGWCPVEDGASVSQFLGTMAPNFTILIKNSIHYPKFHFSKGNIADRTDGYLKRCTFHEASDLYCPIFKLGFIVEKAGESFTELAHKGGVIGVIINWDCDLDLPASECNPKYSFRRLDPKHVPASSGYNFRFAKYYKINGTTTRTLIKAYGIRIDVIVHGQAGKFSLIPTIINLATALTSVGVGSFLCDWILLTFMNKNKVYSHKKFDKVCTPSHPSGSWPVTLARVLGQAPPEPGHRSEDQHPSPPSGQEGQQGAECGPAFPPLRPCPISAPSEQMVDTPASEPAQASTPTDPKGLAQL

O=C(Nc1cc(C(F)(F)F)cc(C(F)(F)F)c1)c1ccc2ccccc2c1O
inhibition [1]: 105% | inhibition [2]: 6%
